65 compounds from PubChem BioAssay AID1468 (National Center for Advancing Translational Sciences (NCATS), 2008) can be followed below.

Protein sequences, listed by entry. Tags and fused reporters are not part of them.
UniProt P10636, whole entry, looked up: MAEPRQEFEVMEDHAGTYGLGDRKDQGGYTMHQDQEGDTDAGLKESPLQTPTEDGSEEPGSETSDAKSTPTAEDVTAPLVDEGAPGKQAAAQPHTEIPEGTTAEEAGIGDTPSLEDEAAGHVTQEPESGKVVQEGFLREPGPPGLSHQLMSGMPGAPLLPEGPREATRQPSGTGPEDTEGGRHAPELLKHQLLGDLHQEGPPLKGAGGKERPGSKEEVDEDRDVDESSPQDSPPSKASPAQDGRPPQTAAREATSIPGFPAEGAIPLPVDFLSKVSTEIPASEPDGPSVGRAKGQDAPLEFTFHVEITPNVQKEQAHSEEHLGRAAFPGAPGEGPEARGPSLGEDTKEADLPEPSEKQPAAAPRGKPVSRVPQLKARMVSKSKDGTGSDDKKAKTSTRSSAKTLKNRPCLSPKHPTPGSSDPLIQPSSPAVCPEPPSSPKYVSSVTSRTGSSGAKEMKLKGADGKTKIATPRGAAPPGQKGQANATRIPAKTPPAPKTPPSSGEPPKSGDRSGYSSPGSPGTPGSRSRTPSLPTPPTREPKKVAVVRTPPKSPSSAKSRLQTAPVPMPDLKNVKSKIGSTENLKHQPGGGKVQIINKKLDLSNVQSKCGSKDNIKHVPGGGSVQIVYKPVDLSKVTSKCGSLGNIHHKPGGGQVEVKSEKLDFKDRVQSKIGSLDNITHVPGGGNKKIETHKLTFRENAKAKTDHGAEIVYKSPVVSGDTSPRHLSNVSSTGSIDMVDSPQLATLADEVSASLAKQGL

This is a selection; strong and weak results do not stand in their true shares. Results filed as inconclusive are left out. Entries that show only a call come without a potency. Calls of active or inactive are those of the source. Calls follow the shape of the dose curve; as a rule, active = well fitted inhibition curve with a large enough effect; inconclusive = small, poorly fitted or top-dose-only effect, or effect the other way; inactive = flat fitted curve, though single readings scatter.
Potency is read from the fitted curve at half-maximal effect.

The target in the assay is Microtubule-associated protein tau (Homo sapiens) (UniProt P10636). The assay can be described thus: qHTS for Inhibitors of Tau Fibril Formation, Fluorescence Polarization. Also: nearly all actives have a fitted effect of over 55% in size. The settings on record: K18 P301L tau heparin fibrillization, Alexa594 FP, 6 h; series mostly up to 57.7 µM. From the text: NIH Molecular Libraries Probe Production Network [MLPCN]
NIH Chemical Genomics Center [NCGC]
Assay Provider: Carlo Ballatore, University of Pennsylvania
The microtubule-associated protein tau is an abundant protein in the axons of neurons that stabilizes microtubules. With its ability to modulate microtubule dynamics, tau contributes directly or indirectly, to key structural and regulatory cellular functions. Particularly important is the influence tau exerts on axonal transport, which allows signaling molecules, trophic factors and other essential cellular constituents to travel along the axons. Under pathological conditions, tau becomes sequestered into insoluble aggregates called neurofibrillary tangles. This phenomenon is believed to have pathological consequences by promoting axonal transport deficits that ultimately lead to synaptic dysfunction and neuronal loss. To identify inhibitors of tau aggregation, a heparin-induced tau fibril formation assay was used that employed a recombinantly expressed fragment of tau, K18 (Q242-E372), bearing a P301L mutation (Gustke et al. 1994; Hong et al. 1998).
Gustke, N., B. Trinczek, et al. (1994). "Domains of tau protein and interactions with microtubules." Biochemistry 33(32): 9511-22.
Hong, M., V. Zhukareva, et al. (1998).
Li, W. and V. M. Lee (2006). "Characterization of two VQIXXK motifs for tau fibrillization in vitro." Biochemistry 45(51): 15692-701.
von Bergen, M., S. Barghorn, et al. (2001). "Mutations of tau protein in frontotemporal dementia promote aggregation of paired helical filaments by enhancing local beta-structure." J Biol Chem 276(51): 48165-74.
NCGC Assay Protocol Summary:
For screening, 2 uL/well human K18 P301L (15 uM unlabeled and 0.24 uM Alexa 594-labeled tau final concentrations) in reagent buffer (100 mM sodium acetate pH 7) was dispensed into black solid 1536-well plates (Grenier) using a solenoid-based dispenser. Following transfer of 23 nL compound or DMSO vehicle by a pin tool, 2 uL/well heparin (20 uM final concentration) in reagent buffer was added and the plate centrifuged 15 s at 1000 RPM. Plates were incubated 6 hr at 37 C and then 1 uL/well ThT (30 uM final concentration) was added. After a 1 hr ambient incubation, the plates were read by an Envision (Perkin Elmer) to monitor Alexa 594 FP (555 nm excitation and 632 nm emission).
Keywords: NIH Roadmap, MLPCN, MLI, MLSMR, NCGC, qHTS, tau, tauopathies, Alzheimer's disease, fibril, neurodegeneration, aggregation
For the compound `CC(C)c1ccc(OP(=O)(Nc2ccccn2)Oc2ccccc2F)cc1` (stereo not given), the Potency result was “inactive”. As for `ClCCSc1nnc(-c2cccnc2)o1`, the Potency result is “inactive”. Regarding `CCN(CC)C(=S)SC(NC=O)C(Cl)(Cl)Cl` (stereo not given), the Potency result was “inactive”. As to `CC(C)NC(=O)NP(=O)(Oc1ccccc1)Oc1ccccc1`, the Potency result was “inactive”. Take `O=[N+]([O-])c1cc([N+](=O)[O-])c(-c2ccn[nH]2)s1`: the Potency result was “inactive”.

As to `O=[As](O)(c1ccc(O)cc1)c1ccccc1O`, the Potency result is “inactive”. The value for `C[As](=O)(O)c1cccc(C(=O)O)c1` was “inactive”. Under `Cc1ccc2nc3c(c(C)c2c1)CC(C(Cl)Cl)S3` (stereo not given) stands “inactive”; under `Cc1ccc(OP(=O)(Nc2ccc([N+](=O)[O-])cn2)Oc2ccc(C)cc2)cc1`, “inactive”. For `COc1ccc(N/C(=N/P(=O)(N2CCOCC2)N2CCOCC2)N2CCOCC2)cc1`, the Potency entry was “inactive”.

With `O=C(OC1CN2CCC1CC2)C12CC3CC(CC(C3)C1)C2` (stereo not given), the Potency entry is “inactive”. Consider `Cc1cc(=O)[nH]c(N[N+](=O)[O-])n1`, for which the Potency result was “inactive”. Turning to `Cc1c2c(nc3ccccc13)SC(C(Cl)Cl)C2` (stereo not given), the Potency result was “inactive”. The value for `COc1cc(I)ccc1[As](=O)(O)O` was “inactive”; that for `CCOC(=O)c1ccc(NC(=O)C(C)(CCl)SC)cc1` (stereo not given) was “inactive”. Consider `CCC(C)N(CC(C)C)C(=S)SC(NC(C)=O)C(Cl)(Cl)Cl` (stereo not given), for which the Potency entry was “inactive”. The value for `COP1(=S)c2c(C)nn(CCC#N)c2N=C(c2ccc(F)cc2)N1C` (stereo not given) was “inactive”; that for `O=C(COc1ccccc1)OC1CN2CCC1CC2` (stereo not given) was “inactive”; that for `CCOC(=O)Nc1cccc([As](=O)(O)O)c1` was “inactive”.

Regarding `O=[N+]([O-])c1ccc(Nc2ccc(Oc3ccc([N+](=O)[O-])cc3[N+](=O)[O-])cc2)c([N+](=O)[O-])c1`, the Potency result was “inactive”. As to `Cc1cc(SC(NC=O)C(Cl)(Cl)Cl)ncn1` (stereo not given), the Potency entry was “inactive”. Take `O=P(Nc1ccccn1)(c1cccc2ccccc12)c1cccc2ccccc12`: the Potency entry is “inactive”.

In the case of `CCOC(=O)Nc1ccc([As](=O)(O)O)c(O)c1`, the Potency result was “inactive”. With `O=P1(Nc2ncccn2)COc2ccccc2OC1`, the Potency entry was “inactive”. Take `O=P1(Nc2ccc(Br)cn2)COc2ccccc2OC1`: the Potency entry was “inactive”. Regarding `O=[As](O)(c1cccs1)c1cccs1`, the Potency result is “inactive”. With `Cc1ccc(OCC(=O)OC2CN3CCC2CC3)cc1` (stereo not given), the Potency entry was “inactive”. With `Nc1cccc([As](=O)(O)c2ccccc2)c1`, the Potency result was “inactive”. On to `Cc1nn(-c2ccccc2)c2c1P(=O)(N1CCOCC1)N(C)C(c1ccccc1)=N2` (stereo not given), for which the Potency entry was “inactive”.

As to `CC1CCC(C(C)C)C(OP(=O)(Nc2ccccn2)c2ccccc2)C1` (stereo not given), the Potency result was “inactive”. `O=C(/C=C/c1ccccc1)OC1CN2CCC1CC2` (stereo not given): the Potency entry was “inactive”. Take `CN(C)C1(CNC(=O)c2ccc(S(C)(=O)=O)cc2)CCCCC1`: the Potency entry is “inactive”. Consider `O=[As](O)(c1ccccc1Br)c1ccccc1Br`, for which the Potency entry was “inactive”.

As for `CN(C(=O)Cc1ccc(Cl)c(Cl)c1)[C@@H]1CCCC[C@H]1N1CCCC1`, the Potency result is “inactive”. For the compound `CC(C)/C=N\N=C(\N)N[N+](=O)[O-]`, the Potency result is “inactive”.

As to `CN(CCCl)Cc1cc(Cl)c(NC2=NCCN2)c(Cl)c1`, the Potency entry is “inactive”. For `CCOP(=O)(Nc1ccc(C)cn1)OCC`, the Potency result is “inactive”. Take `O=P1(Nc2ccccn2)COc2ccccc2OC1`: the Potency result was “inactive”. As to `Clc1n[nH]nc1-c1nn[nH][15n]1`, the Potency result was “inactive”. Take `CC(C)(C)C(=O)NC(Sc1ncccn1)C(Cl)(Cl)Cl` (stereo not given): the Potency entry is “inactive”. `Nc1cccc2c([As](=O)(O)O)cccc12`: the Potency result was “inactive”. The value for `Cc1ccc(NCCc2c([N+](=O)[O-])cc([N+](=O)[O-])cc2[N+](=O)[O-])cc1` was “inactive”. Under `COc1cc(C2NCCC3(OCCO3)C2(C)C)cc(OC)c1OC` (stereo not given) stands “inactive”; under `CCOP(=O)(Nc1cccc2ccccc12)OCC`, “inactive”; under `COc1cc(C(=O)NCC2(N3CCOCC3)CCCCC2)cc(Cl)c1OC(C)C`, “inactive”.

With `O=[As](O)(O)c1cccnc1`, the Potency entry was “inactive”. Regarding `O=C(OC1CN2CCC1CC2)c1ccc(Cl)cc1` (stereo not given), the Potency entry is “inactive”. As for `CN(C(=O)Cc1ccc(Cl)c(Cl)c1)[C@@H]1CC[C@]2(CCCO2)C[C@H]1N1CCCC1`, the Potency entry was “inactive”. Regarding `O=[As](O)(c1cccc(O)c1)c1cccc(O)c1`, the Potency result is “inactive”. Turning to `Cc1cccc(OCC(=O)OC2CN3CCC2CC3)c1` (stereo not given), the Potency result is “inactive”. With `NC(=O)Nc1ccc([As](=O)(O)O)cc1`, the Potency result was “inactive”. The value for `O=[N+]([O-])CC(O)c1ccc([N+](=O)[O-])cc1` (stereo not given) was “inactive”; that for `O=[N+]([O-])c1ccc2c(c1)nnn2O` was “inactive”. As for `CCOP1(=S)c2c(C)nn(CCC#N)c2N=C(c2ccc(F)cc2)N1C` (stereo not given), the Potency result was “inactive”. Turning to `CN(C(=O)Cc1ccccc1)[C@@H]1CC[C@]2(CCCO2)C[C@H]1N1CCCC1`, the Potency entry is “inactive”. With `CS(=O)(=O)c1cc([N+](=O)[O-])c2no[n+]([O-])c2c1`, the Potency is active: 14.1 µM. As to `CCOP1(=S)c2c(C)nn(CCC#N)c2N=C(c2ccccc2F)N1C` (stereo not given), the Potency entry was “inactive”. The value for `O=P(Nc1nccs1)(c1ccccc1)c1nc2ccccc2s1` (stereo not given) was “inactive”. Regarding `O=P(Nc1nccs1)(Oc1ccccc1)Oc1ccccc1`, the Potency entry was “inactive”. Turning to `O=C(O)COc1ccc([As](=O)(O)O)cc1[N+](=O)[O-]`, the Potency entry is “inactive”. On to `Nc1ccccc1[As](=O)(O)c1ccccc1`, for which the Potency entry is “inactive”. In the case of `COC(=O)c1cc2c(s1)N=C(c1ccccc1)N(C)P2(=O)N1CCOCC1` (stereo not given), the Potency result was “inactive”. For `Cc1ccc(OP(=O)(Nc2ccccn2)Oc2ccc(C)cc2)cc1`, the Potency result is “inactive”. Consider `CC(=O)NC(SC(=S)N(CC(C)C)CC(C)C)C(Cl)(Cl)Cl` (stereo not given), for which the Potency entry is “inactive”. `CN(C(=O)Cc1ccc(Cl)c(Cl)c1)[C@@H]1CCCC[C@@H]1N1CCCC1`: the Potency entry was “inactive”.
